Protein sequences, listed by entry. Tags and fused reporters are not part of them.
UniProt Q2G130, entry or part of it: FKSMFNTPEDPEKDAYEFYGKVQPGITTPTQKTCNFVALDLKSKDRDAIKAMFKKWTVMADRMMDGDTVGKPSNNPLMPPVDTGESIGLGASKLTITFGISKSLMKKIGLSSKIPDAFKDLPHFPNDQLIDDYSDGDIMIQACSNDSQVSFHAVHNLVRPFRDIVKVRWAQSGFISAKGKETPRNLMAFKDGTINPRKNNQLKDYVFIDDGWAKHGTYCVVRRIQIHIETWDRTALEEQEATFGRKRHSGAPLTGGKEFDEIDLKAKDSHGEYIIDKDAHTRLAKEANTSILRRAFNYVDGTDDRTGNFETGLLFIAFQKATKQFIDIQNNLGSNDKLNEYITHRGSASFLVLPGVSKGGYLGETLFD

According to article PMC3577903, “Staphylococcus aureus FepA and FepB Proteins Drive Heme Iron Utilization in Escherichia coli” (PLoS ONE, 2013):

Molecular target: FepB (FepB-6His, apo-FepB) (Staphylococcus aureus, UniProt Q2G130)
Experiment: biochemical
Parameters: gene SAOUHSC_00326

C=CC1=C(C)C2=Cc3c(C=C)c(C)c4[n]3[Fe]([Cl])[n]3c(c(C)c(CCC(=O)O)c3=CC3=NC(=C4)C(C)=C3CCC(=O)O)=CC1=N2 [hemin]
Kd: 0.0133 ± 0.0027 µM
